Measurements reported in ChEMBL document CHEMBL3639108, “5,6,7,8,9,10-hexahydro-6,10-epimino[1,2,4]triazolo[4,3-a]azocines as P2X7 modulators” (2015).

Amino acid sequences for entries named in this document (tags omitted). A change or cut given only in a name is not applied to a line headed by its entry.
UniProt Q99572: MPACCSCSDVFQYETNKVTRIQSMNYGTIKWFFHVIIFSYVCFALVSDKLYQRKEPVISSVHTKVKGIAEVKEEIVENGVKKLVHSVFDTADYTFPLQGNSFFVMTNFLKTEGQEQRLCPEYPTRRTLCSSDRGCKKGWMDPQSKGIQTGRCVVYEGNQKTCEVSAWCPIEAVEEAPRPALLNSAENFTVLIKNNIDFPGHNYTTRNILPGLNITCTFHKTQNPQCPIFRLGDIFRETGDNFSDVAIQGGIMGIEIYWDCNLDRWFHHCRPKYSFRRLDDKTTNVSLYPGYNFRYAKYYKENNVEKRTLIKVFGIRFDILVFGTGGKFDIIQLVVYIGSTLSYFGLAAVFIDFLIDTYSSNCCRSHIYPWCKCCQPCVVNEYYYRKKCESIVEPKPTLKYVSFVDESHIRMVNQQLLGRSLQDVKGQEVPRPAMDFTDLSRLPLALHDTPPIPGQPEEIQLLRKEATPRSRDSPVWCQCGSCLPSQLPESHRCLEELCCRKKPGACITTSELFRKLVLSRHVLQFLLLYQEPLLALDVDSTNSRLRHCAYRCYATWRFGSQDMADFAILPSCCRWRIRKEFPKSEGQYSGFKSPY

Legend:
[1] = target: T1, P2X purinoceptor 7 (Homo sapiens, UniProt Q99572); experiment: FLIPR Assay: Ca^2+flux: 1321N1 cells expressing the recombinant human, rat or mouse P2X7 channel was cultured in HyQ DME/(HyClone/Dulbecco's Modified Eagle Medium) high glucose supplemented with 10% Fetal Bovine Serum (FBS) and appropriate selection marker. Cells were seeded at a density of 25000 cells/well (96-well clear bottom black walled plates) in 100 µl volume/well. On the day of the experiment, cell plates were washed with assay buffer, containing (in mM): 130 NaCl, 2 KCl, 1 CaCl2, 1 MgCl2, 10 HEPES, 5 glucose; pH 7.40 and 300 mOs. After the wash, cells were loaded with the Calcium-4 dye (Molecular Device) and incubated in the dark for 60 minutes. Test compounds were prepared at 250× the test concentration in neat DMSO. Intermediate 96-well compound plates were prepared by transferring 1.2 µL of the compound into 300 µL of assay buffer. A further 3× dilution occurred when transferring 50 µL/well of the compound plate to 100 µL/well in the cell plate.; type: cell-based
[2] = target: T1, P2X purinoceptor 7; experiment: Radioligand Binding: Human or rat P2X7-1321N1 cells were collected and frozen @-80° C. On the day of the experiment, cell membrane preparations were made according to standard published methods. The total assay volume was 100 µl:10 µl compound (10×)+(b) 40 µl tracer (2.5×)+50 µl membrane (2×). The tracer used for the assay was tritiated A-804598. The compound can be prepared as described in the literature. […] C. The assay was terminated by filtration (GF/B filters pre-soaked with 0.3% PEI) and washed with washing buffer (Tris-HCl 50 mM).; type: cell-based

`COc1ccc(-c2nnc3n2C[C@@H]2CCC[C@H]3N2C(=O)c2cccc(C(F)(F)F)c2Cl)nc1` showed an IC50 [1] of 10 nM and a Ki [2] of 30.4 nM.
